{"source": "patent US20170238569A1", "about": "“EDIBLE FOOD PRESERVATIVE” (EMPIRE TECHNOLOGY DEVELOPMENT LLC, priority 2016, published 2017)", "details": "isolated product (early fractions), precipitated with ethanol", "data": [{"substance": "ascorbic gallate ester [Example 7]", "values": [{"measurement": "solubility in water", "result": "water soluble"}]}]}
